Patent publication US20250025442A1, “BCAA-Lowering Compounds for Prevention and/or Treatment of Alzheimer's Disease and Related Disorders” (Texas Tech University System, priority 2020, published 2025)
Read-outs that look alike come from different tables or passages of the source.

How the values were obtained:
[1] = injected ip in CD-1 mice; cited from earlier work
[2] = in vitro; cited from earlier work
5xFAD mice = assay: BT2 daily ip injection for one month in 5xFAD mice; conditions: BT2 40 mg/kg ip daily, WT and 5xFAD mice
Source text: These transgenic mice develop amyloid plaques and neuroinflammation at as early as 1.5-2 months of age^7, thus allowing the inventors to investigate the role of BCAAs in AD-related brain pathology when they are young. […] Next, the inventors examined amyloid and Tau pathology in the cortex.

In the case of `O=C(O)c1sc2cc(Cl)ccc2c1Cl` [BT2, 3,6-dichlorobenzo[b]thiophene-2-carboxylic acid], the Half-life [1] is listed as ~12 h, the Half-life [2] is listed as > 4 h and the Body weight (5xFAD mice) is listed as “not different”. The food intake (5xFAD mice) was “not different”.
